ChEMBL document CHEMBL5370584, “Reprogramming Energy Metabolism with Synthesized PDK Inhibitors Based on Dichloroacetate Derivatives and Targeted Delivery Systems for Enhanced Cancer Therapy” (J Med Chem, 2023)

Sequences of proteins named here, by UniProt entry; tags and fusion partners are left off.
UniProt Q8BFP9, whole entry, looked up: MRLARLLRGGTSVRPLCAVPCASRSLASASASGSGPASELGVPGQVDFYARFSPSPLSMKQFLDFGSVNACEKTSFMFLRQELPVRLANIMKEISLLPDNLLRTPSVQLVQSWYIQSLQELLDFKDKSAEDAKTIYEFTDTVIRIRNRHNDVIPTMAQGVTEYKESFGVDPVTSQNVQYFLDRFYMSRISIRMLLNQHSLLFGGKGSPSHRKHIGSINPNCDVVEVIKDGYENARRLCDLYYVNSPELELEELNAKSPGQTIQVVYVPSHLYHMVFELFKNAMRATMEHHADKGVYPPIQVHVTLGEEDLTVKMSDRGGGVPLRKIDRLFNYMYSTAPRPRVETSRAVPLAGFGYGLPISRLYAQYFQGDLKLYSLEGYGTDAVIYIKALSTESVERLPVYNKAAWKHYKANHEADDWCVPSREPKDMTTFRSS
UniProt Q922H2, whole entry, looked up: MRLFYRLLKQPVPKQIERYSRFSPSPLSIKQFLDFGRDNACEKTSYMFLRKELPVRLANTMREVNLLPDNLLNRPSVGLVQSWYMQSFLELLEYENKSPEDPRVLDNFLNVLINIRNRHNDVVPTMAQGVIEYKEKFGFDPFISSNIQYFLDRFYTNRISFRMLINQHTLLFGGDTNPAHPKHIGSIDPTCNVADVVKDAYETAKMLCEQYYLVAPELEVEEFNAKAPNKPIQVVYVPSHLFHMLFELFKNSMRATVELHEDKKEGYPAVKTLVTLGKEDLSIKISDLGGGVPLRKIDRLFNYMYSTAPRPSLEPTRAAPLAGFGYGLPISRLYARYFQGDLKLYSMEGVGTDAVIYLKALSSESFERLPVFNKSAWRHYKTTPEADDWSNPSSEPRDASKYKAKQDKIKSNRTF
UniProt O70571, whole entry, looked up: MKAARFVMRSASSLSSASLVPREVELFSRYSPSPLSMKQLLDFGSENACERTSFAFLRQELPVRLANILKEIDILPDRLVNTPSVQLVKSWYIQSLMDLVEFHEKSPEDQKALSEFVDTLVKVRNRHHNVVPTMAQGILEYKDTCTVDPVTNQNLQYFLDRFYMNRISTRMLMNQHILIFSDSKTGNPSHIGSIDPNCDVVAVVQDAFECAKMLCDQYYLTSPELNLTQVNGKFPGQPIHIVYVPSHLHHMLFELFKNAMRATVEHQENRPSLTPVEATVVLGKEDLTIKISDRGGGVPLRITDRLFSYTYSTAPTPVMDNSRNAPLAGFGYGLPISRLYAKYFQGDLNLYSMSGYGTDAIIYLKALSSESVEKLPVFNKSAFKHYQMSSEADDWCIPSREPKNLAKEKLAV

What was measured:
[1] = target: [Pyruvate dehydrogenase (acetyl-transferring)] kinase isozyme 1, mitochondrial (Mus musculus) (UniProt Q8BFP9); assay: Inhibition of PDK1 transcription in mouse 4T1 cells at 4 uM incubated for 24 hrs by qPCR analysis; assay type: cell-based
[2] = target: [Pyruvate dehydrogenase (acetyl-transferring)] kinase isozyme 2, mitochondrial (Mus musculus) (UniProt Q9JK42); assay: Inhibition of PDK2 transcription in mouse 4T1 cells at 4 uM incubated for 24 hrs by qPCR analysis; assay type: cell-based
[3] = target: [Pyruvate dehydrogenase (acetyl-transferring)] kinase isozyme 3, mitochondrial (Mus musculus) (UniProt Q922H2); assay: Inhibition of PDK3 transcription in mouse 4T1 cells at 4 uM incubated for 24 hrs by qPCR analysis; assay type: cell-based
[4] = target: [Pyruvate dehydrogenase (acetyl-transferring)] kinase isozyme 4, mitochondrial (Mus musculus) (UniProt O70571); assay: Inhibition of PDK4 transcription in mouse 4T1 cells at 4 uM incubated for 24 hrs by qPCR analysis; assay type: cell-based
[5] = test system: 4T1; assay: Inhibition of PDK1 expression in mouse 4T1 cells at 4 uM incubated for 24 hrs by Western blot analysis; assay type: functional, cell-based
[6] = test system: 4T1; assay: Inhibition of PDK4 expression in mouse 4T1 cells at 4 uM incubated for 24 hrs by Western blot analysis; assay type: functional, cell-based
[7] = test system: 4T1; assay: Inhibition of glycolysis in mouse 4T1 cell lysates assessed as reduction in extracellular acidification rate at 2 uM measured after 6 hrs; assay type: functional, cell-based

Measured: inhibition

Nc1ccc([As]2SCCCS2)cc1
inactive: [1] | [2] | [3] | [4] | [5] | [6] | [7]

Active and inactive are the calls of the source.
